# Binding of CDR-mutated scFvs to a peptide of the spike HR2 region

The measurements come from Li et al. 2023 (doi:10.1038/s41467-023-39022-2) through the FLAb antibody collection.

Target peptide (SARS-CoV-2 spike, HR2 region): PDVDLGDISGINAS

Ab-14 is the parent antibody, in scFv form: VH, then a (GGGGS)3 linker, then VL. The heavy chain is unchanged in all variants.
VH: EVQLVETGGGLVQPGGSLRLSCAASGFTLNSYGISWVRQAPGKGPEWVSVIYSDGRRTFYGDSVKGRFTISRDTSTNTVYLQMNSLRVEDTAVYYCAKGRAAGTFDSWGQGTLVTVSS
VL: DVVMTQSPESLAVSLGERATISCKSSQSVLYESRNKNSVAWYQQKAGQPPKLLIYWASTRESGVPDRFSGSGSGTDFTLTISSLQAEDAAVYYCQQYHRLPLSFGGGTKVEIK

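The variants were designed computationally from a first round of random CDR variants and then made and measured. Several design methods are mixed in this list. In AlphaSeq, yeast of one mating type display the scFv and yeast of the other type display the target. Mating (16 h, 30 °C) was followed by selection of diploids and sequencing of their barcodes. The ratio of observed to expected reads was calibrated, replicate by replicate, on BCL2-family standards whose Kd was known from biolayer interferometry. Each pool was mated in six replicate cultures.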

Changes read parent residue, position, new residue, counted from the first residue of the VL shown.
This list holds designs with at most six substitutions.
Values are log10 of the apparent Kd in nM; lower means stronger binding.
Averages over replicates are reported, and they cover detected replicates only.
An entry "nd" has no value in the source: the pair was not observed among the diploids in that replicate. This suggests poor binding but is not conclusive.
Background: pairings of all light chain designs with three empty control strains gave a value in 4% of cases (median 2.64, 5th percentile 1.59). Values in that range, when seen in few replicates, are hard to tell from nonspecific mating. The control count says in how many pairings with the empty strains this scFv gave a signal.
A sequence measured in both rounds can read differently, since the two assays cover different ranges.
The authors' rule: three or more of the six replicates give a measured affinity, fewer mean a poor binder.

- E32N N35H P101L -> nd, nd, nd, nd, nd, nd (controls 0 of 18)
- K24H V29E W56N -> 0.46, 0.62, 0.50, 0.12, 0.48, 0.45 (mean 0.44; controls 0 of 18)
- S28Q T59E Q95F -> nd, nd, nd, nd, nd, nd (controls 0 of 18)
- N37H T59Q Q95G -> nd, nd, nd, nd, nd, nd (controls 0 of 18)
- S25L S26Q V29W L30E W56N E61L -> 0.31, -0.35, 0.03, -0.09, 0.18, 0.32 (mean 0.07; controls 0 of 18)
- S25L S26R V29T S38A -> 0.75, 0.69, 0.68, 0.55, 0.73, 0.96 (mean 0.73; controls 0 of 18)
- S25V S26M K36V S38N W56N A57G -> -0.01, 0.09, -0.10, -0.33, -0.21, -0.06 (mean -0.10; controls 2 of 18)
- S25T L30M R99N -> nd, 2.44, 1.17, nd, 1.88, 2.06 (mean 1.89; controls 1 of 18)
- S25L V29Q W56Q S58H T59H S62H -> 2.21, 2.03, 2.54, 1.83, 1.81, 2.20 (mean 2.10; controls 0 of 18)
- Y31M E32N W56S -> 0.39, 0.35, -0.10, 0.44, 0.22, 0.41 (mean 0.28; controls 0 of 18)
- S25L L30K Y31F W56D -> 0.20, 0.09, 0.06, 0.20, 0.08, 0.11 (mean 0.12; controls 1 of 18)
- S25L V29M L30D W56N T59Q -> 0.01, -0.15, 0.02, -0.18, -0.08, 0.09 (mean -0.05; controls 0 of 18)
- S25I S62D -> 0.34, 0.98, 0.97, 0.06, 0.45, 1.14 (mean 0.66; controls 1 of 18)
- S25F V29W W56G -> 0.84, 0.76, 0.35, 0.55, 0.69, 0.54 (mean 0.62; controls 1 of 18)
- S25L S26R V29T W56G Y97W -> nd, nd, 1.13, nd, nd, nd (controls 0 of 18)
- S25V Y31R -> 0.88, 1.07, 0.75, 0.81, 0.53, 0.73 (mean 0.80; controls 1 of 18)
- K24R Y31Q W56Y -> nd, nd, nd, nd, nd, nd (controls 0 of 18)
- S25L S26E V29Q W56E -> 0.05, 0.32, 0.19, 0.07, 0.01, 0.39 (mean 0.17; controls 1 of 18)
- K24R S28T L30Q S33E -> nd, nd, nd, 1.19, nd, nd (controls 0 of 18)
- E32Y A57D -> nd, nd, 3.27, nd, nd, nd (controls 0 of 18)
- S25F W56N S58V S62T S103W -> 1.54, 1.28, 1.63, 1.26, 1.53, 1.21 (mean 1.41; controls 3 of 18)
- S26W S62D -> nd, nd, nd, nd, nd, nd (controls 0 of 18)
- S26L N37D W56H S62D -> 0.29, 0.18, 0.33, 0.21, 0.51, 0.36 (mean 0.31; controls 0 of 18)
- S25L S26R V29P W56N -> 0.28, 0.24, -0.05, 0.07, -0.09, 0.10 (mean 0.09; controls 1 of 18)
- S26L W56G E61C S62D -> -0.10, -0.19, -0.12, -0.18, -0.31, -0.01 (mean -0.15; controls 2 of 18)
- S26W Q27H L30D E32T S33M W56D -> -0.14, -0.28, -0.41, -0.23, -0.31, -0.15 (mean -0.25; controls 0 of 18)
- V29D Y31L W56Y L102V -> nd, nd, 1.26, 2.15, 0.81, 1.45 (mean 1.41; controls 0 of 18)
- K24H S25L Q27P L30E W56N T59S -> 0.12, 0.20, 0.34, 0.14, -0.11, 0.15 (mean 0.14; controls 1 of 18)
- S25N R99Y L102N -> nd, nd, nd, nd, nd, nd (controls 0 of 18)
- K24H S25Q Q27P W56N A57G S62Q -> 0.16, 0.30, 0.20, 0.18, 0.15, 0.24 (mean 0.21; controls 1 of 18)
- S26P Q27F Y31T R34T W56E -> 1.27, nd, nd, nd, nd, nd (controls 0 of 18)
- S25F S26Q V29Q W56N E61L -> 0.33, 0.15, -0.12, -0.07, 0.01, 0.16 (mean 0.08; controls 1 of 18)
- L30R R34M H98C -> nd, nd, 3.42, nd, 2.88, nd (mean 3.15; controls 0 of 18)
- R34L W56Q -> 1.06, 0.77, 0.59, 0.50, 0.70, 0.87 (mean 0.75; controls 1 of 18)
- Y31G S33Q W56D A57G -> 0.08, 0.09, -0.16, -0.14, 0.02, 0.01 (mean -0.02; controls 1 of 18)
- V29Y W56N -> -0.19, -0.42, -0.45, -0.58, -0.41, -0.11 (mean -0.36; controls 0 of 18)
- S25V S26P Q27F S38A W56Q Q96D -> -0.33, 0.00, -0.03, 0.09, 0.09, 0.10 (mean -0.01; controls 1 of 18)
- S26Y R34N -> nd, 2.19, nd, 2.50, 2.58, 2.45 (mean 2.43; controls 0 of 18)
- S26L V29Q L30E W56H T59Q S62D -> 0.22, -0.07, -0.14, -0.17, -0.23, 0.08 (mean -0.05; controls 3 of 18)
- S25L S28L V29Q W56N -> -0.02, -0.05, -0.21, -0.29, -0.29, -0.09 (mean -0.16; controls 2 of 18)
- S25A N35V W56D T59M -> nd, 1.31, 0.65, 0.85, 0.38, 1.68 (mean 0.97; controls 0 of 18)
- S26A Q27Y V29E Y31G W56S S58N -> 0.22, 0.37, 0.35, 0.21, 0.37, 0.56 (mean 0.35; controls 1 of 18)
- S25Y Q27F V29D L30G Y31N W56D -> 0.01, -0.27, -0.17, -0.22, -0.29, -0.07 (mean -0.17; controls 0 of 18)
- S25L S28E V29M L30E N37A W56H -> nd, nd, 1.22, 0.36, 0.63, 0.72 (mean 0.73; controls 0 of 18)
- Y31F K36A W56D S58L -> -0.10, 0.24, -0.13, 0.24, 0.31, -0.20 (mean 0.06; controls 1 of 18)
- Y31D R34S S62Y L100D -> nd, 2.29, nd, nd, 1.69, nd (mean 1.99; controls 0 of 18)
- S38E T59E -> nd, nd, 2.39, 2.00, 1.49, 2.10 (mean 1.99; controls 0 of 18)